The values that follow are results of earlier work, collected in patent publication US20140256766A1, “TRANSMUCOSAL DRUG DELIVERY SYSTEM” (priority 2013, published 2014).

For the data set the following is noted: current transmucosal therapy, lollipop.

Some compounds may have been tested in ways that are not shown here.

Regarding `CCC(=O)N(c1ccccc1)C1CCN(CCc2ccccc2)CC1`, the “time to reach maximum plasma concentrations” value was “over 20 minutes”.
